Assay [1] deals with urease. Conditions: 800 micrograms test compound + 42.8 mg urea in 20 g air-dry soil (Cazenovia sandy loam, pH 7.2), 25° C., three days, triplicate.
In assay [2] the test system is urease. Particulars: 800 micrograms test compound + 42.8 mg urea in 20 g air-dry soil (Plano silt loam, pH 5.4), 25° C., three days, triplicate.

As to `NP(N)(=O)OC(CCl)CCl`, the “% Inhibition Cazenovia Soil” value in assay [1] was 72%. In addition, the “% Inhibition Wisconsin Soil” value in assay [2] was 49%.

The record behind these values is US4517002A (priority 1983, dated 1985).
